This passage reports IC50 results from patent publication US20260207585A1, “METHODS AND COMPOSITIONS FOR THE TREATMENT OF PARKINSON'S DISEASE, HUNTINGTON'S DISEASE, AMYOTROPHIC LATERAL SCLEROSIS, AND LEARNING DISORDERS” (Cedars-Sinai Medical Center, priority 2022, published 2026).

The structures appear in SMILES notation. Numbering of substitutions follows the chain as printed.

Common to all, as to assay type: biochemical
Common to all, as to details: control compound; substrate Nucleosomes 0.05 mg/mL

One experiment deals with T1, NSD2 (Homo sapiens, UniProt O96028).
T1 sequence (O96028 1-1365): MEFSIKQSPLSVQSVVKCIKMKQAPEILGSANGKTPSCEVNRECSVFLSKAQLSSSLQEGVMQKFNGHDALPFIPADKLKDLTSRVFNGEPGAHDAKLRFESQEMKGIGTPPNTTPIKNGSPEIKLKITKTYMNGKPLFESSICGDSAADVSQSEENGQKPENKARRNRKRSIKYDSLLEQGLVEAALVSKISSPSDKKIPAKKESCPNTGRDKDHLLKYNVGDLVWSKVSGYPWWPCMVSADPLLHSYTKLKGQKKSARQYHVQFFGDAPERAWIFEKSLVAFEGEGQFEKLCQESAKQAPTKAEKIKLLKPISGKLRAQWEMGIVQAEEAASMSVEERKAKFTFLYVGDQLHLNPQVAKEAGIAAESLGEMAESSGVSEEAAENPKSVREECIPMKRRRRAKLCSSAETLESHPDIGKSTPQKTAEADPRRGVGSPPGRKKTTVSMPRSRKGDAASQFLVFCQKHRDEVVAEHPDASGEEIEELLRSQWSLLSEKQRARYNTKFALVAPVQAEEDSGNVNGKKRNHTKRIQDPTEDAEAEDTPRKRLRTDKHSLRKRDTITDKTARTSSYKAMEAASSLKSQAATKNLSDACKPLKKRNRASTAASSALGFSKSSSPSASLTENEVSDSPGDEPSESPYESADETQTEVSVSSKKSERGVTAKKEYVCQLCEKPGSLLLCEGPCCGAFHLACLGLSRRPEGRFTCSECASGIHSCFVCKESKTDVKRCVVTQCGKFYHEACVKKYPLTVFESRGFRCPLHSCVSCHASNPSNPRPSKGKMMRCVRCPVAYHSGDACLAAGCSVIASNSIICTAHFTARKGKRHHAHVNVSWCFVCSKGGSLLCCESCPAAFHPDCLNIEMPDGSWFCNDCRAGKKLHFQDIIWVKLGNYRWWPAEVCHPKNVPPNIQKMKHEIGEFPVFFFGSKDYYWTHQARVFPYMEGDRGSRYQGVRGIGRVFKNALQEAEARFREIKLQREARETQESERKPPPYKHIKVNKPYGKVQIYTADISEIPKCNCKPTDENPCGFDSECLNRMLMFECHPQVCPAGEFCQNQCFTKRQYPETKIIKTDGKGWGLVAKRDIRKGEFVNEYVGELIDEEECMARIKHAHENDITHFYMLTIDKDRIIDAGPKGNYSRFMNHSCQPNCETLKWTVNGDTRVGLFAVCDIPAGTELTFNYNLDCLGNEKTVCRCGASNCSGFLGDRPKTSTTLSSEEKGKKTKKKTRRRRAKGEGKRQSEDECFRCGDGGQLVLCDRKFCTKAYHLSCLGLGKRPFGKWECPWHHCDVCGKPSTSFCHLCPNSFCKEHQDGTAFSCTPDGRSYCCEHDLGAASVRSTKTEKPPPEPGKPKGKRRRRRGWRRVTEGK
The experiment is described as follows: Methyltransferase inhibition panel: NSD2. The method, then:
(§1) The ability of ETP69 to inhibit methyltransferases was tested.

In another experiment the target is T2, NSD2 (E1099K) (Homo sapiens, UniProt O96028, E1099K).
T2 sequence (O96028 1-1365 E1099K): T1 sequence (O96028 1-1365) with E1099K
Nature of the experiment: Methyltransferase inhibition panel: NSD2 (E1099K). The method, then: as §1

The next experiment has as its target T3, NSD2 (T1150A) (Homo sapiens, UniProt O96028, T1150A).
T3 sequence (O96028 1-1365 T1150A): T1 sequence (O96028 1-1365) with T1150A
The experiment is described as follows: Methyltransferase inhibition panel: NSD2 (T1150A). The protocol:
as §1

With `Nc1ncnc2c1ncn2[C@@H]1O[C@H](CSCC[C@H](N)C(=O)O)[C@@H](O)[C@H]1O` [SAH, reference compound], the IC50 – broadly, the point on the concentration scale where inhibition reaches its midpoint – against NSD2 worked out at 3360 nM; on NSD2 (E1099K), 1580 nM; against NSD2 (T1150A), 472 nM.
